Values quoted from earlier work, collected in US20250000818A1, “NEW SYNERGISTIC COMBINATIONS BASED ON FENM AND AN ACETYLCHOLINESTERASE INHIBITOR” (REST Therapeutics, priority 2021, published 2025).

Conditions: source France Alzheimer; cited from earlier work

Substance: Aducanumab
- treated patients presenting cerebral microhemorrhages and cerebral edema: Approximately 35%
